## Ab-14 light chain CDR variants: yeast mating affinities

From the AlphaSeq antibody data of Li et al. 2023 (doi:10.1038/s41467-023-39022-2), copy in the FLAb collection.

All variants were tested on one target, the spike HR2 peptide PDVDLGDISGINAS (SARS-CoV-2).

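This is the validation round: designs drawn from the data on random variants, tested in the same kind of assay. Their group label is 14L_GP_Gibbs (GP: Gaussian process model; Gibbs: Gibbs sampling; a sequence that several methods proposed may carry one label only). The assay is AlphaSeq: two haploid yeast populations carry antibody and antigen on their surface. After mating in shaken culture at 30 °C for 16 h, diploids were selected and their barcode pairs sequenced. The ratio of observed to expected reads was calibrated, replicate by replicate, on BCL2-family standards whose Kd was known from biolayer interferometry. Mating was done six times.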

Ab-14 is the parent antibody, in scFv form: VH, then three GGGGS repeats, then VL. The heavy chain is unchanged in all variants.
VH: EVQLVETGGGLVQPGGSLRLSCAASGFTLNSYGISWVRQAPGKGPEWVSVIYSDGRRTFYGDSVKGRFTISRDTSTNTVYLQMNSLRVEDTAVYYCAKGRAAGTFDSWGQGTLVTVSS
VL: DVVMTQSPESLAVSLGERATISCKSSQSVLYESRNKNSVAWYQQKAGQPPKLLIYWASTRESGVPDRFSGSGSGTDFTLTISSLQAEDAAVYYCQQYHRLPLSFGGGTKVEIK

Positions count from residue 1 of the parent VL; S25L puts L in place of S.
The read-out is the apparent dissociation constant on a log10 scale (nM): the lower, the stronger.
"nd" marks a missing value. The strain was present, yet no cells mated with the target were sequenced in that replicate, which points to weak or no binding.
The authors' rule: three or more of the six replicates give a measured affinity, fewer mean a poor binder.

Variant S25L/Q27M/V29Q/L30E/W56N/E61L/S62T showed -0.19, -0.23, -0.32, -0.51, -0.30, -0.28 (controls 3 of 18).
Variant S25V/Q27W/V29D/L30E/Y31L/E32Q/N37G/S38Q/W56S/S62L showed 0.11, -0.16, -0.35, -0.26, -0.21, -0.03 (controls 0 of 18).
Variant S25L/S26M/V29M/K36T/W56H/T59H showed 0.55, 0.43, 0.57, 0.46, 0.21, 0.43 (controls 1 of 18).
Variant S25A/N35V/W56S/T59M showed nd, nd, nd, nd, nd, nd (controls 0 of 18).
Variant S25L/S26W/Q27E/Y31G/K36Q/S38A/W56S/S62L showed 0.09, -0.14, -0.12, -0.47, 0.00, 0.15 (controls 0 of 18).
Variant S25F/S26Q/S28M/L30M/Y31Q/E32G/S33D/E61L/S62Q showed nd, nd, nd, nd, nd, nd (controls 1 of 18).
Variant S25L/L30E/Y31V/E32L/S33D/W56N/S62A showed 0.83, 0.95, 0.19, 0.47, 0.58, 0.80 (controls 1 of 18).
Variant S25Q/S26Q/V29D/L30E/Y31G/E32M/S33Q/W56E/E61C/S62M showed -0.13, -0.08, -0.35, -0.19, -0.35, -0.22 (controls 1 of 18).
Variant S25V/Y31M/R34C/K36V/S38N/W56N/S62D showed 0.42, 0.55, 0.34, 0.41, 0.62, 0.54 (controls 3 of 18).
Variant Q27A/L30E/S33D/W56H/S62Q showed 0.95, 0.43, 0.05, 0.57, 1.17, 0.90 (controls 2 of 18).
Variant S25L/S26P/Q27G/S28E/V29Q/L30G/N37A/W56E showed 0.28, 0.26, 0.37, 0.15, 0.43, 0.40 (controls 0 of 18).
Variant S25L/S26E/Q27I/L30M/Y31Q/E32W/S33E/W56N/S62V showed 0.62, 0.97, 1.20, 0.93, 1.15, 1.05 (controls 1 of 18).
Variant S25W/S26Q/V29S/L30D/K36F/W56N/E61C/S62T showed 0.28, 0.34, 0.06, -0.02, 0.19, 0.45 (controls 1 of 18).
Variant S25L/Q27G/V29Q/E32Q/K36S/S38A/W56N/E61M showed 0.55, 0.56, 0.35, 0.37, 0.35, 0.56 (controls 0 of 18).
Variant Q27P/V29E/S33D/N35L/K36F/W56H/T59Q showed 0.68, 1.05, 1.15, 0.75, 1.19, 1.19 (controls 0 of 18).
Variant S25V/S26D/S28E/V29W/L30Q/E32G/W56N/T59Q showed -0.10, -0.04, -0.26, -0.46, -0.38, -0.25 (controls 0 of 18).
Variant S25A/S26Q/S28G/V29E/N35D/K36W/S38N/W56D/T59K/E61L showed -0.43, -0.67, -0.60, -0.65, -0.79, -0.39 (controls 1 of 18).
Variant S25L/V29N/L30G/N35M/K36F/W56N/T59Q showed 0.93, 0.39, 0.45, 0.09, 0.26, 0.49 (controls 1 of 18).
Variant K24H/S25A/S26Y/V29G/S33Q/K36Q/W56S/T59M showed 0.30, 0.24, 0.13, 0.10, 0.08, 0.36 (controls 1 of 18).
Variant S25L/S26M/V29W/L30D/W56D/T59K/E61S/S62Q showed 0.47, 0.34, 0.27, 0.45, 0.21, 0.43 (controls 1 of 18).
Variant S25C/S26D/S28W/L30F/E32G/S33D/W56N/S62Q showed 0.81, 0.42, 0.14, 0.14, 0.39, 0.40 (controls 0 of 18).
Variant S25V/S26M/S28E/V29M/L30P/N35M/K36A/W56N/T59Q showed -0.21, -0.17, -0.34, -0.41, -0.57, -0.24 (controls 0 of 18).
Variant S25V/S26M/V29M/L30W/N35W/W56N/T59Q/S62E showed 0.65, 0.70, 0.52, 0.56, 0.92, 0.85 (controls 1 of 18).
Variant S25L/S26Q/Q27F/V29C/N35W/K36P/W56N/T59Y/E61S showed 1.08, 0.74, 0.86, 0.77, 0.74, 1.03 (controls 2 of 18).
Variant S25I/V29E/L30Y/S33D/N37M/W56S/E61L showed 0.39, 0.40, 0.60, 0.39, 0.65, 0.55 (controls 4 of 18).
Variant S25L/L30E/Y31L/E32Q/S38A/W56S/S58Q showed 0.15, 0.25, -0.11, -0.24, -0.08, 0.52 (controls 1 of 18).
Variant S26E/Q27M/S28L/L30D/E32K/S33D/K36L/W56N/E61L showed 0.27, 0.45, 0.21, 0.13, 0.41, 0.45 (controls 2 of 18).
Variant S25L/S26M/V29S/E32D/W56Q/S62W showed 0.68, 0.46, 0.42, 0.36, 0.49, 0.36 (controls 0 of 18).
Variant S25L/S26E/S28Q/V29W/L30E/K36S/S38N/W56A/S62D showed -0.15, -0.36, -0.50, -0.37, -0.39, -0.34 (controls 3 of 18).
Variant S25V/S26V/L30D/S33P/N37Q/W56D/E61L showed 0.15, 0.04, 0.24, -0.06, 0.27, -0.06 (controls 1 of 18).
Variant S25L/Q27K/S28M/L30M/Y31M/W56S/S62E showed -0.04, -0.09, -0.16, -0.10, -0.16, -0.18 (controls 1 of 18).
Variant S25W/S26E/Q27F/Y31G/S38A/W56S/T59Q/S62Q showed 0.28, 0.06, 0.05, -0.20, 0.14, 0.11 (controls 0 of 18).
Variant S25L/S26M/V29T/N35M/K36A/S38N/W56S/S62E showed 0.08, -0.19, -0.54, -0.20, -0.54, -0.28 (controls 0 of 18).
Variant S25L/L30E/Y31Q/E32L/W56H/T59Q/S62V/Q96A showed 0.27, 0.19, 0.08, 0.24, 0.17, 0.20 (controls 1 of 18).
Variant S25L/Q27N/V29Y/L30E/E32Q/K36M/W56N/E61L showed 0.71, 0.51, 0.53, 0.42, 0.35, 0.55 (controls 0 of 18).
Variant S25L/S26E/L30Q/Y31M/W56N showed 0.07, -0.10, -0.33, -0.31, -0.07, 0.02 (controls 3 of 18).

Repeated from above, the 5 best binders with a signal in all replicates:

S25A/S26Q/S28G/V29E/N35D/K36W/S38N/W56D/T59K/E61L: -0.43, -0.67, -0.60, -0.65, -0.79, -0.39 (controls 1 of 18).
S25L/S26E/S28Q/V29W/L30E/K36S/S38N/W56A/S62D: -0.15, -0.36, -0.50, -0.37, -0.39, -0.34 (controls 3 of 18).
S25V/S26M/S28E/V29M/L30P/N35M/K36A/W56N/T59Q: -0.21, -0.17, -0.34, -0.41, -0.57, -0.24 (controls 0 of 18).
S25L/Q27M/V29Q/L30E/W56N/E61L/S62T: -0.19, -0.23, -0.32, -0.51, -0.30, -0.28 (controls 3 of 18).
S25L/S26M/V29T/N35M/K36A/S38N/W56S/S62E: 0.08, -0.19, -0.54, -0.20, -0.54, -0.28 (controls 0 of 18).

The parent sequence was in this pool as ten entries: three were never detected, three once, and four in most replicates, with averages from 0.34 to 2.37.
The range of this assay differs from that of the first round, and the authors advise against merging the two.
Empty control strains, which show no peptide, gave a signal in 4% of pairings with all light chain designs; the median was 2.64 and 95% of these signals were weaker than 1.59. No background was subtracted. For each scFv, signals with the empty controls are counted beside the result.